Source: US20060079453A1, “Hla binding peptides and their uses” (priority 2002, published 2006)
pIC50: −log10 of the molar value. Where two headings read alike, the source gives them in different places.

By UniProt entry, the sequences of proteins in these tests, tags left out. Residues count along the entry.
UniProt Q30154, 30-266: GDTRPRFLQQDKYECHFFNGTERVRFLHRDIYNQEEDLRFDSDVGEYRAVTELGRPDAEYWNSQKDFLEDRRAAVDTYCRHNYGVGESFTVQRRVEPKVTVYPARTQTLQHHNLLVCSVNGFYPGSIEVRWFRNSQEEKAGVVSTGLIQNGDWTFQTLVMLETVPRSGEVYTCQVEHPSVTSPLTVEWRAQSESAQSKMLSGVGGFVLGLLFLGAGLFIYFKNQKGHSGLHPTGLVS

Experiments:
Assay in all cases: biochemical
Type in all cases: binding
[1] = biological target: HLA-DR DRB1*1101 (DR11) (Homo sapiens, UniProt P01903+P01911, A100R/A169T/A87E/I96F/K41T/L162R/M171V/P40S/Q125H/Q178H/Q39Y/Q99D/R42S/S66Y/T262R/V115G/W38E)
[2] = biological target: HLA-DR DRB1*0405 (DR4) (Homo sapiens, UniProt P01903+P01911, A100R/A169T/D86S/F76Y/I96L/K127E/L162R/M171V/N62H/P40V/Q125Y/R42H/S133A/S149N/S66Y/V115G/V209L/W38E)
[3] = biological target: HLA-DR DRB5*0101 (DR51) (Homo sapiens, UniProt P01903+Q30154)
[4] = biological target: HLA-DR DRB1*0802 (DR8) (Homo sapiens, UniProt P01903+P01911, A100R/A103L/A169T/F76Y/H45Y/I96F/K41T/L162R/M171V/P40S/Q125H/Q178H/Q39Y/Q99D/R218S/R42G/S66Y/V115G/W38E)
[5] = biological target: HLA-DR DRB1*0701 (DR7) (Homo sapiens, UniProt P01903+P01911, A100R/A102G/A103Q/D57E/D86V/E43K/F76Y/K127E/L162R/M171V/P40G/Q125H/Q99D/R33Q/R42Y/R54Q/S133A/S66F/T210M/V115G/Y107V/Y59L/Y89S)
[6] = biological target: HLA-DR DRB1*1501 (DR15) (Homo sapiens, UniProt P01903+P01911)
[7] = biological target: HLA-DR DRB1*1302 (DR13) (Homo sapiens, UniProt P01903+P01911, A100E/A169T/K41T/L162R/M171V/P40S/Q125H/Q178H/Q39Y/Q99D/R42S/S66N/T262R/V115G/W38E/Y61H)
[8] = biological target: HLA-DR DRB1*0101 (DR1) (Homo sapiens, UniProt P01903+P01911, A100R/D57E/F55L/F60I/F76Y/I96L/L162R/M171V/P40L/Q125E/R42F/V115G/Y59C)
[9] = biological target: HLA-DR DRB1*0901 (DR9) (Homo sapiens, UniProt P01903+P01911, A100R/A103E/D57H/D86V/F55Y/F60I/F76Y/I96F/K127E/L162R/M171V/P40D/Q125H/Q99R/R33Q/R42F/S133A/S66N/T210M/V115G/W38K/Y107V/Y59G/Y89S)
[10] = biological target: HLA-DR DRB1*0401 (DR4) (Homo sapiens, UniProt P01903+P01911, A100K/A169T/F76Y/I96L/K127E/L162R/M171V/N62H/P40V/Q125Y/R42H/S133A/S149N/S66Y/V115G/V209L/W38E)
[11] = biological target: HLA-DR DRB4*0101 (DR53) (Homo sapiens, UniProt P01903+P13762, G164S)

## CC[C@H](C)[C@H](NC(=O)[C@H](CCC(=O)O)NC(=O)[C@H](CCC(=O)O)NC(=O)[C@@H]1CCCN1)C(=O)N[C@@H](CCCCN)C(=O)N[C@@H](CCC(N)=O)C(=O)N[C@@H](CC(C)C)C(=O)N[C@@H](CCC(N)=O)C(=O)N[C@@H](CCC(N)=O)C(=O)N[C@@H](Cc1ccccc1)C(=O)N[C@@H](CCC(N)=O)C(=O)N[C@@H](CCCCN)C(=O)N[C@@H](CCC(=O)O)C(=O)N[C@@H](CC(=O)O)C(=O)N[C@@H](C)C(=O)O
[1]; DRB1 *1101
  pIC50: 5.71
[2]; DRB1 *0405
  pIC50: 5.10
[3]; DRB5 *0101
  pIC50: 6.17

## CC[C@H](C)[C@H](N)C(=O)N1CCC[C@H]1C(=O)N[C@@H](CCCCN)C(=O)N[C@@H](CCC(=O)O)C(=O)N[C@@H](CCC(N)=O)C(=O)N[C@@H](CCCCN)C(=O)N[C@@H](Cc1ccc(O)cc1)C(=O)N[C@@H](CO)C(=O)N[C@@H](Cc1ccccc1)C(=O)N[C@@H](CC(C)C)C(=O)N[C@@H](CCC(N)=O)C(=O)N[C@@H](CC(N)=O)C(=O)N1CCC[C@H]1C(=O)N[C@@H](CCC(N)=O)C(=O)N[C@H](C(=O)O)[C@@H](C)O
[4]
  pIC50: 4.87
[5]; DRB1 *0701
  pIC50: 5.08
[6]; DRBI *1501
  pIC50: 4.79
[2]; DRB1 *0405
  pIC50: 8.05
[7]; DRBI *1302
  pIC50: 4.86
[8]; DRB1 *0101
  pIC50: 6.89
[3]; DRB5 *0101
  pIC50: 4.88

## CSCC[C@H](N)C(=O)N[C@@H](CO)C(=O)N[C@@H](Cc1ccc(O)cc1)C(=O)N[C@@H](CC(N)=O)C(=O)N[C@@H](CC(C)C)C(=O)N[C@@H](CC(C)C)C(=O)NCC(=O)N[C@@H](Cc1ccccc1)C(=O)N[C@@H](CC(C)C)C(=O)N[C@@H](CCC(N)=O)C(=O)N[C@@H](CCCNC(=N)N)C(=O)N[C@@H](CO)C(=O)N[C@@H](CO)C(=O)N[C@@H](CC(N)=O)C(=O)N[C@@H](CS)C(=O)O
[1]; DRB1 *1101
  pIC50: 5.44
[4]
  pIC50: 5.47
[6]; DRBI *1501
  pIC50: 7.05
[9]; DRB1 *0901
  pIC50: 5.44
[2]; DRB1 *0405
  pIC50: 6.10
[10]; DRB1 *0401
  pIC50: 6.44
[3]; DRB5 *0101
  pIC50: 6.15
[11]; DRB4 *0101
  pIC50: 5.19

## ALQAQKEAISPPDAA
[1]; read-out: DRB1 *1101
  pIC50: 5.38
[6]; read-out: DRBI *1501
  pIC50: 4.85
[3]; read-out: DRB5 *0101
  pIC50: 5.40

## CC(C)C[C@H](NC(=O)[C@H](CC(=O)O)NC(=O)[C@H](Cc1ccc(O)cc1)NC(=O)[C@@H](NC(=O)[C@H](CC(N)=O)NC(=O)[C@H](CO)NC(=O)[C@H](CC(=O)O)NC(=O)[C@H](CO)NC(=O)[C@H](C)NC(=O)CNC(=O)[C@H](Cc1ccc(O)cc1)NC(=O)[C@@H](NC(=O)[C@H](CC(C)C)NC(=O)[C@H](CO)NC(=O)[C@@H](N)CC(N)=O)C(C)C)C(C)C)C(=O)O
[5]; DRB1 *0701
  pIC50: 6.70
[9]; DRB1 *0901
  pIC50: 5.41
[7]; DRBI *1302
  pIC50: 4.85
[10]; DRB1 *0401
  pIC50: 6.72

## CC[C@H](C)[C@H](NC(=O)[C@@H](NC(=O)[C@H](Cc1c[nH]c2ccccc12)NC(=O)[C@H](C)NC(=O)[C@H](CS)NC(=O)[C@H](Cc1c[nH]cn1)NC(=O)[C@H](CO)NC(=O)[C@H](CC(=O)O)NC(=O)[C@H](CCC(=O)O)NC(=O)[C@H](CCCCN)NC(=O)[C@H](C)NC(=O)[C@H](CCCCN)NC(=O)[C@H](CC(C)C)NC(=O)[C@H](Cc1ccc(O)cc1)NC(=O)[C@@H](N)Cc1c[nH]cn1)[C@@H](C)O)C(=O)O
[5]; DRB1 *0701
  pIC50: 6.24
[2]; DRB1 *0405
  pIC50: 5.43
[10]; DRB1 *0401
  pIC50: 5.69
[3]; DRB5 *0101
  pIC50: 5.58
[11]; DRB4 *0101
  pIC50: 5.12

## CC[C@H](C)[C@H](NC(=O)[C@H](CO)NC(=O)[C@H](CCC(=O)O)NC(=O)[C@H](CO)NC(=O)[C@H](Cc1ccccc1)NC(=O)[C@H](CS)NC(=O)[C@H](CC(C)C)NC(=O)[C@H](CO)NC(=O)[C@@H](N)[C@@H](C)O)C(=O)N1CCC[C@H]1C(=O)N[C@H](C(=O)N1CCC[C@H]1C(=O)N[C@@H](CO)C(=O)N[C@@H](CC(N)=O)C(=O)N[C@@H](CCCNC(=N)N)C(=O)O)[C@@H](C)O
[9]; DRB1 *0901
  pIC50: 5.36
[2]; DRB1 *0405
  pIC50: 6.07
[7]; DRBI *1302
  pIC50: 7.00
[10]; DRB1 *0401
  pIC50: 7.32
[8]; DRB1 *0101
  pIC50: 6.22
[11]; DRB4 *0101
  pIC50: 5.73

## VLERYLLEAYEAENI
[5]; read-out: DRB1 *0701
  pIC50: 4.88
[9]; read-out: DRB1 *0901
  pIC50: 5.20
[2]; read-out: DRB1 *0405
  pIC50: 5.30
[10]; read-out: DRB1 *0401
  pIC50: 5.59
[8]; read-out: DRB1 *0101
  pIC50: 6.03

## VDAQGTLSKAFKLGGRDSRS
[5]; read-out: DRB1 *0701
  pIC50: 5.93
[10]; read-out: DRB1 *0401
  pIC50: 5.80
[8]; read-out: DRB1 *0101
  pIC50: 7.60

## CC[C@H](C)[C@H](NC(=O)[C@H](Cc1ccc(O)cc1)NC(=O)[C@H](C)NC(=O)[C@H](CCC(=O)O)NC(=O)[C@H](CCC(=O)O)NC(=O)[C@H](Cc1ccccc1)NC(=O)[C@H](CCC(=O)O)NC(=O)[C@@H](N)CCC(N)=O)C(=O)N1CCC[C@H]1C(=O)N[C@@H](CCCCN)C(=O)N[C@@H](CCC(=O)O)C(=O)N[C@@H](CCC(N)=O)C(=O)N[C@@H](CCCCN)C(=O)N[C@@H](Cc1ccc(O)cc1)C(=O)N[C@@H](CO)C(=O)O
[1]; DRB1 *1101
  pIC50: 4.89
[2]; DRB1 *0405
  pIC50: 6.40
[3]; DRB5 *0101
  pIC50: 5.27

## STGWNETIVENLLAN
[1]; read-out: DRB1 *1101
  pIC50: 4.69
[6]; read-out: DRBI *1501
  pIC50: 6.05
[2]; read-out: DRB1 *0405
  pIC50: 5.15
[8]; read-out: DRB1 *0101
  pIC50: 4.67

## REETQQKSNLELLR
[4]; read-out: DRB1 *0802
  pIC50: 4.65
[9]; read-out: DRB1 *0901
  pIC50: 5.01
[10]; read-out: DRB1 *0401
  pIC50: 5.03
[8]; read-out: DRB1 *0101
  pIC50: 5.05

## CC(C)C[C@H](NC(=O)[C@H](CC(C)C)NC(=O)[C@H](C)NC(=O)[C@H](CC(C)C)NC(=O)CNC(=O)[C@H](CCC(N)=O)NC(=O)[C@H](Cc1c[nH]c2ccccc12)NC(=O)[C@@H](NC(=O)[C@H](CCC(=O)O)NC(=O)[C@@H](NC(=O)[C@H](C)NC(=O)[C@H](CCC(N)=O)NC(=O)[C@H](CCC(N)=O)NC(=O)CNC(=O)[C@@H](N)C(C)C)C(C)C)C(C)C)C(=O)O
[6]; DRBI *1501
  pIC50: 7.92
[2]; DRB1 *0405
  pIC50: 6.03
[7]; DRBI *1302
  pIC50: 5.88
[8]; DRB1 *0101
  pIC50: 6.79
[11]; DRB4 *0101
  pIC50: 5.41

## QKEDAAVTIYEMLQN
[6]; read-out: DRBI *1501
  pIC50: 5.94
[9]; read-out: DRB1 *0901
  pIC50: 5.22
[2]; read-out: DRB1 *0405
  pIC50: 6.11
[7]; read-out: DRBI *1302
  pIC50: 5.14
[10]; read-out: DRB1 *0401
  pIC50: 5.03
[8]; read-out: DRB1 *0101
  pIC50: 5.08

## KEDSHCAWTIVRVEI
[1]; read-out: DRB1 *1101
  pIC50: 5.03
[6]; read-out: DRBI *1501
  pIC50: 5.85
[7]; read-out: DRBI *1302
  pIC50: 6.30
[11]; read-out: DRB4 *0101
  pIC50: 8.10

## CC(C)C[C@H](NC(=O)[C@@H](NC(=O)[C@H](C)NC(=O)[C@H](CCC(=O)O)NC(=O)[C@H](CO)NC(=O)[C@H](CC(C)C)NC(=O)[C@H](CC(C)C)NC(=O)[C@H](C)NC(=O)[C@H](CC(C)C)NC(=O)CNC(=O)[C@H](CCC(N)=O)NC(=O)[C@H](Cc1c[nH]c2ccccc12)NC(=O)[C@@H](NC(=O)[C@H](CCC(=O)O)NC(=O)[C@@H](N)C(C)C)C(C)C)C(C)C)C(=O)O
[1]; DRB1 *1101
  pIC50: 5.29
[4]
  pIC50: 4.87
[6]; DRBI *1501
  pIC50: 7.24
[9]; DRB1 *0901
  pIC50: 5.09
[2]; DRB1 *0405
  pIC50: 7.10
[7]; DRBI *1302
  pIC50: 5.35
[10]; DRB1 *0401
  pIC50: 5.88
[8]; DRB1 *0101
  pIC50: 7.07
[11]; DRB4 *0101
  pIC50: 5.87

## CC[C@H](C)[C@H](NC(=O)CN)C(=O)N[C@@H](CCC(N)=O)C(=O)N[C@H](C(=O)N[C@@H](CC(C)C)C(=O)N[C@@H](CCSC)C(=O)NCC(=O)N[C@@H](CCCNC(=N)N)C(=O)N[C@@H](CC(C)C)C(=O)N[C@@H](CCC(=O)O)C(=O)N[C@@H](CC(=O)O)C(=O)NCC(=O)N[C@@H](CO)C(=O)N1CCC[C@H]1C(=O)N[C@@H](CCCNC(=N)N)C(=O)O)[C@@H](C)O
[1]; DRB1 *1101
  pIC50: 5.35
[5]; DRB1 *0701
  pIC50: 4.72
[6]; DRBI *1501
  pIC50: 5.87
[10]; DRB1 *0401
  pIC50: 4.92
[8]; DRB1 *0101
  pIC50: 7.01
[3]; DRB5 *0101
  pIC50: 4.74
[11]; DRB4 *0101
  pIC50: 5.68
